Target: Kappa-type opioid receptor (Homo sapiens, UniProt P41145)
Test: Binding Assay: Kippa-Opioid Receptor Binding Assay Procedures: Membranes from recombinant HEK-293 cells expressing the human kippa opioid receptor (kippa) (cloned in house) were prepared by lysing cells in ice cold hypotonic buffer (2.5 mM MgCl2, 50 mM HEPES, pH 7.4) (10 mL/10 cm dish) followed by homogenization with a tissue grinder/Teflon pestle. Membranes were collected by centrifugation at 30,
Details: sf9

Row | Compound | Ki [nM]
1 | COc1ccc2c3c1O[C@H]1[C@@]4(OC)CC[C@@]5(C[C@@H]4CNC(=O)[C@H](C)N)[C@@H](C2)N(CC2CC2)CC[C@]315 | 13.8
2 | COC12CC[C@@]3(C[C@@H]1CNC(=O)c1nccnc1C(=O)O)[C@H]1Cc4ccc(O)c5c4[C@@]3(CCN1CC1CC1)[C@H]2O5 | 15.3
3 | CO[C@]12CC[C@@]3(C[C@@H]1CNC(=O)[C@@H](N)CC(N)=O)[C@H]1Cc4ccc(O)c5c4[C@@]3(CCN1CC1CC1)[C@H]2O5 | 0.09
4 | CO[C@]12CC[C@@]3(C[C@@H]1CNC(=O)[C@H](Cc1ccc(O)cc1)NC(C)=O)[C@H]1Cc4ccc(O)c5c4[C@@]3(CCN1CC1CC1)[C@H]2O5 | 0.13
5 | CO[C@]12CC[C@@]3(C[C@@H]1CNC(=O)CNC(C)=O)[C@H]1Cc4ccc(O)c5c4[C@@]3(CCN1CC1CC1)[C@H]2O5 | 0.22
6 | CC[C@H](C)[C@H](N)C(=O)NC[C@H]1C[C@@]23CC[C@]1(OC)[C@@H]1Oc4c(O)ccc5c4[C@@]12CCN(CC1CC1)[C@@H]3C5 | 0.09
7 | COC12CC[C@@]3(C[C@@H]1CNC(=O)CCCCC(=O)O)[C@H]1Cc4ccc(O)c5c4[C@@]3(CCN1CC1CC1)[C@H]2O5 | 13.5
8 | COC12CC[C@@]3(C[C@@H]1CNC(=O)c1nccnc1C(N)=O)[C@H]1Cc4ccc(O)c5c4[C@@]3(CCN1CC1CC1)[C@H]2O5 | 0.48
9 | COC12CC[C@@]3(C[C@@H]1CNC(=O)CCC(N)=O)[C@H]1Cc4ccc(O)c5c4[C@@]3(CCN1CC1CC1)[C@H]2O5 | 0.17
10 | CO[C@]12CC[C@@]3(C[C@@H]1CNC(=O)[C@@H](N)CO)[C@H]1Cc4ccc(O)c5c4[C@@]3(CCN1CC1CC1)[C@H]2O5 | 0.18
